Assay results from US20070059799A1 (priority 1999, published 2007).

The molecules below were run on A3-supertype alleles (assay: A3-supertype cross-reactive binding (A*03, A*11, A*3101, A*3301, A*6801)). Settings: number of A3-supertype alleles bound; 3 or more = degenerate.
Design: species or system human
For `C[C@H](N)C(=O)N[C@@H](Cc1ccccc1)C(=O)N[C@H](C(=O)N[C@@H](Cc1ccccc1)C(=O)N[C@@H](CO)C(=O)N1CCC[C@H]1C(=O)N[C@H](C(=O)N[C@@H](Cc1ccc(O)cc1)C(=O)N[C@@H](CCCCN)C(=O)O)[C@@H](C)O)[C@@H](C)O` [20.0130], the Alleles bound was 3. `CC(C)[C@H](NC(=O)[C@@H](NC(=O)[C@@H](N)CO)C(C)C)C(=O)N[C@@H](CCCNC(=N)N)C(=O)N[C@@H](CCCNC(=N)N)C(=O)N[C@@H](C)C(=O)N[C@@H](Cc1ccccc1)C(=O)N1CCC[C@H]1C(=O)N[C@@H](Cc1c[nH]cn1)C(=O)O` [20.0131] gave an Alleles bound of 3. In the case of `CC[C@H](C)[C@H](NC(=O)CNC(=O)[C@H](C)NC(=O)[C@H](CCCCN)NC(=O)[C@H](Cc1c[nH]c2ccccc12)NC(=O)[C@H](CC(C)C)NC(=O)[C@@H](N)[C@@H](C)O)C(=O)N[C@@H](CC(C)C)C(=O)N[C@@H](Cc1ccc(O)cc1)C(=O)O` [1099.03], the Alleles bound is reported as 1. With `CC[C@H](C)[C@H](N)C(=O)N[C@@H](CC(C)C)C(=O)N[C@@H](CCCNC(=N)N)C(=O)NCC(=O)N[C@H](C(=O)N[C@@H](CO)C(=O)N[C@@H](Cc1ccccc1)C(=O)N[C@H](C(=O)N[C@@H](Cc1ccc(O)cc1)C(=O)O)C(C)C)[C@@H](C)O` [Peptide 1.0205] the Alleles bound was 1. `CC(C)C[C@H](NC(=O)[C@H](CC(=O)O)NC(=O)[C@@H](NC(=O)[C@@H](N)[C@@H](C)O)[C@@H](C)O)C(=O)N[C@@H](CCC(=O)O)C(=O)N[C@@H](C)C(=O)N[C@@H](Cc1ccc(O)cc1)C(=O)N[C@@H](Cc1ccccc1)C(=O)N[C@@H](CCCCN)C(=O)O` [Peptide 1.0215.] was tested, and the Alleles bound was 2. `CC[C@H](C)[C@H](NC(=O)CNC(=O)[C@H](CC(C)C)NC(=O)[C@@H](N)CO)C(=O)N[C@@H](Cc1c[nH]cn1)C(=O)N[C@@H](CC(C)C)C(=O)N[C@@H](CC(N)=O)C(=O)N1CCC[C@H]1C(=O)N[C@@H](CC(N)=O)C(=O)N[C@@H](CCCCN)C(=O)O` [Peptide 1.0562] was tested, and the Alleles bound was 2. With `CC(C)C[C@H](NC(=O)[C@H](CC(=O)O)NC(=O)[C@@H](NC(=O)[C@@H](NC(=O)[C@@H](N)CO)[C@@H](C)O)[C@@H](C)O)C(=O)N[C@@H](CCC(=O)O)C(=O)N[C@@H](C)C(=O)N[C@@H](Cc1ccc(O)cc1)C(=O)N[C@@H](Cc1ccccc1)C(=O)N[C@@H](CCCCN)C(=O)O` [Peptide 1.0584] the Alleles bound was 1. `CC(C)C[C@H](NC(=O)[C@@H](NC(=O)[C@H](Cc1ccccc1)NC(=O)[C@@H](NC(=O)[C@@H](N)CCCCN)C(C)C)C(C)C)C(=O)NCC(=O)NCC(=O)N[C@@H](CS)C(=O)N[C@@H](CCCNC(=N)N)C(=O)O` [Peptide 1.0993] was tested, and the Alleles bound was 4. Work on `C[C@@H](O)[C@H](NC(=O)[C@@H](N)Cc1ccccc1)C(=O)N[C@@H](Cc1ccccc1)C(=O)N[C@@H](CO)C(=O)N1CCC[C@H]1C(=O)N[C@H](C(=O)N[C@@H](Cc1ccc(O)cc1)C(=O)N[C@@H](CCCCN)C(=O)O)[C@@H](C)O` [Peptide 26.0008] yielded an Alleles bound of 3. `CC[C@H](C)[C@H](NC(=O)[C@H](Cc1c[nH]c2ccccc12)NC(=O)[C@@H](NC(=O)CNC(=O)[C@H](Cc1ccccc1)NC(=O)[C@H](CO)NC(=O)[C@@H](N)C(C)C)C(C)C)C(=O)N[C@@H](CCCNC(=N)N)C(=O)O` [Peptide 26.0023] was tested, and the Alleles bound was 3. `CC[C@H](C)[C@H](NC(=O)[C@H](CO)NC(=O)[C@@H](N)C(C)C)C(=O)N1CCC[C@H]1C(=O)N[C@@H](Cc1c[nH]c2ccccc12)C(=O)N[C@H](C(=O)N[C@@H](Cc1c[nH]cn1)C(=O)N[C@@H](CCCCN)C(=O)O)[C@@H](C)O` [Peptide 26.0024] was tested, and the Alleles bound was 1. In the case of `CC(C)C[C@H](NC(=O)[C@H](C)NC(=O)[C@@H](N)CS)C(=O)N[C@@H](CCCNC(=N)N)C(=O)N[C@@H](Cc1ccccc1)C(=O)N[C@H](C(=O)N[C@@H](CO)C(=O)N[C@@H](C)C(=O)N[C@@H](CCCNC(=N)N)C(=O)O)[C@@H](C)O` [Peptide 26.0149], the Alleles bound is reported as 4. `CC(C)C[C@H](NC(=O)[C@H](C)NC(=O)[C@H](CS)NC(=O)[C@@H]1CCCN1C(=O)CNC(=O)[C@H](C)NC(=O)[C@H](CO)NC(=O)[C@@H](N)CO)C(=O)N[C@@H](CCCNC(=N)N)C(=O)O` [Peptide 26.0153] was tested, and the Alleles bound was 4. `CC[C@H](C)[C@H](NC(=O)[C@H](Cc1c[nH]c2ccccc12)NC(=O)[C@@H](NC(=O)CN)C(C)C)C(=O)N[C@@H](CCCNC(=N)N)C(=O)N[C@H](C(=O)N1CCC[C@H]1C(=O)N1CCC[C@H]1C(=O)N[C@@H](C)C(=O)N[C@@H](Cc1ccc(O)cc1)C(=O)N[C@@H](CCCNC(=N)N)C(=O)O)[C@@H](C)O` [Peptide 26.0535] was tested, and the Alleles bound was 5. In the case of `CC(C)C[C@H](NC(=O)[C@@H](N)CCCNC(=N)N)C(=O)N[C@H](C(=O)N[C@H](C(=O)N[C@@H](CC(=O)O)C(=O)N[C@@H](Cc1ccccc1)C(=O)N[C@@H](CO)C(=O)N[C@@H](CCC(N)=O)C(=O)N[C@@H](Cc1ccccc1)C(=O)N[C@@H](CO)C(=O)N[C@@H](CCCNC(=N)N)C(=O)O)C(C)C)C(C)C` [Peptide 26.0539], the Alleles bound is reported as 5. For `CC(C)C[C@H](NC(=O)[C@@H](N)[C@@H](C)O)C(=O)N1CCC[C@H]1C(=O)N[C@@H](CCC(=O)O)C(=O)N[C@H](C(=O)N[C@H](C(=O)N[C@H](C(=O)N[C@H](C(=O)N[C@@H](CCCNC(=N)N)C(=O)N[C@@H](CCCNC(=N)N)C(=O)N[C@@H](CCCNC(=N)N)C(=O)O)C(C)C)C(C)C)[C@@H](C)O)[C@@H](C)O` [Peptide 26.0545], the Alleles bound was 3. `CC[C@H](C)[C@H](NC(=O)[C@@H]1CCCN1C(=O)[C@H](CC(C)C)NC(=O)[C@@H](N)CC(C)C)C(=O)N[C@@H](Cc1ccccc1)C(=O)N[C@@H](Cc1ccccc1)C(=O)N[C@@H](CS)C(=O)N[C@@H](CC(C)C)C(=O)N[C@@H](Cc1c[nH]c2ccccc12)C(=O)N[C@H](C(=O)N[C@@H](Cc1ccc(O)cc1)C(=O)O)C(C)C` [Peptide 26.0549] gave an Alleles bound of 2. Work on `CC(C)C[C@H](NC(=O)[C@H](CS)NC(=O)[C@H](Cc1c[nH]cn1)NC(=O)[C@@H]1CCCN1C(=O)[C@H](Cc1ccccc1)NC(=O)[C@H](C)NC(=O)[C@@H](N)CCCNC(=N)N)C(=O)N[C@@H](C)C(=O)N[C@@H](Cc1ccccc1)C(=O)N[C@@H](CO)C(=O)N[C@@H](Cc1ccc(O)cc1)C(=O)O` [Peptide 26.0550] yielded an Alleles bound of 2. Work on `CC(C)[C@H](N)C(=O)N[C@H](C(=O)N[C@@H](CC(=O)O)C(=O)N[C@@H](Cc1ccccc1)C(=O)N[C@@H](CO)C(=O)N[C@@H](CCC(N)=O)C(=O)N[C@@H](Cc1ccccc1)C(=O)N[C@@H](CO)C(=O)N[C@@H](CCCNC(=N)N)C(=O)O)C(C)C` [Peptide 1069.19] yielded an Alleles bound of 2. Molecule `CC(C)C[C@H](NC(=O)[C@@H](NC(=O)[C@@H](N)CO)[C@@H](C)O)C(=O)N1CCC[C@H]1C(=O)N[C@@H](CCC(=O)O)C(=O)N[C@H](C(=O)N[C@H](C(=O)N[C@H](C(=O)N[C@H](C(=O)N[C@@H](CCCNC(=N)N)C(=O)O)C(C)C)C(C)C)[C@@H](C)O)[C@@H](C)O` [Peptide 1069.21] has an Alleles bound of 2. For `CC(C)C[C@H](NC(=O)[C@@H](N)[C@@H](C)O)C(=O)N1CCC[C@H]1C(=O)N[C@@H](CCC(=O)O)C(=O)N[C@H](C(=O)N[C@H](C(=O)N[C@H](C(=O)N[C@H](C(=O)N[C@@H](CCCNC(=N)N)C(=O)N[C@@H](CCCNC(=N)N)C(=O)O)C(C)C)C(C)C)[C@@H](C)O)[C@@H](C)O` [Peptide 1069.22], the Alleles bound was 2.
